The values that follow are results of earlier work, collected in patent publication US20150141617A1, “PRODUCTION AND PURIFICATION OF ACTIVE EUKARYOTIC FORMYLGLYCINEGENERATING ENZYME (FGE) VARIANTS” (Universität Bielefeld, priority 2013, published 2015).

Protein sequences, listed by entry. Tags and fused reporters are not part of them. Residues count along the entry.
UniProt P09958, 108-794 limits assumed: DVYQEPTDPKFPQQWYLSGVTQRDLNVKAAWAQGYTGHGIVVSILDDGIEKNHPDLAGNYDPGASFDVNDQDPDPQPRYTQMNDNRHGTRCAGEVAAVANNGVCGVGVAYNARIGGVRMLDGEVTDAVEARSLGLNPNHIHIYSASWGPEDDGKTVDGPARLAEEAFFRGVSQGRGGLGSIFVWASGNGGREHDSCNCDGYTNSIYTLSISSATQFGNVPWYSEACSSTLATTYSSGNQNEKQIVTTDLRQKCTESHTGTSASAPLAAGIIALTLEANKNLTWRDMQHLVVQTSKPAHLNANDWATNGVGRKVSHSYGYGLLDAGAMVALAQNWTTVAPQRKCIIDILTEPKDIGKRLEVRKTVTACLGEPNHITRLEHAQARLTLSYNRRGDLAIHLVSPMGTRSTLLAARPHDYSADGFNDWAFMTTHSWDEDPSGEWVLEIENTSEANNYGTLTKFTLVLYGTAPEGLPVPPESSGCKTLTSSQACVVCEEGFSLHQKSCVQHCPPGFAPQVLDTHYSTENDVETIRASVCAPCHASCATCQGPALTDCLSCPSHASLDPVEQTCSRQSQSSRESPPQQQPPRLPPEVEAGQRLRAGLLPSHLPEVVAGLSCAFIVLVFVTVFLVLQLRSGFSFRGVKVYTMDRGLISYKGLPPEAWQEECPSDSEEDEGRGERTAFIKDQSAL

The data set deals with furin (Homo sapiens, UniProt P09958). The settings on record: read-out: Ki against furin; cited from earlier work.

As to `N=C(N)NCCC[C@H](NC(=O)[C@H](CCCNC(=N)N)NC(=O)[C@H](CCCNC(=N)N)NC(=O)[C@H](CCCNC(=N)N)NC(=O)[C@H](CCCNC(=N)N)NC(=O)[C@H](CCCNC(=N)N)NC(=O)[C@H](CCCNC(=N)N)NC(=O)[C@H](CCCNC(=N)N)NC(=O)[C@@H](N)CCCNC(=N)N)C(=O)O`, the inhibition constant Ki is 40 nM.
